Reference: ChEMBL document CHEMBL5260839 (J Med Chem, 2019)

Protein sequences, listed by entry. Tags and fused reporters are not part of them. Lines headed by an entry give the natural chain unless they say otherwise; changes in a name come on top.
UniProt Q00987, whole entry, looked up: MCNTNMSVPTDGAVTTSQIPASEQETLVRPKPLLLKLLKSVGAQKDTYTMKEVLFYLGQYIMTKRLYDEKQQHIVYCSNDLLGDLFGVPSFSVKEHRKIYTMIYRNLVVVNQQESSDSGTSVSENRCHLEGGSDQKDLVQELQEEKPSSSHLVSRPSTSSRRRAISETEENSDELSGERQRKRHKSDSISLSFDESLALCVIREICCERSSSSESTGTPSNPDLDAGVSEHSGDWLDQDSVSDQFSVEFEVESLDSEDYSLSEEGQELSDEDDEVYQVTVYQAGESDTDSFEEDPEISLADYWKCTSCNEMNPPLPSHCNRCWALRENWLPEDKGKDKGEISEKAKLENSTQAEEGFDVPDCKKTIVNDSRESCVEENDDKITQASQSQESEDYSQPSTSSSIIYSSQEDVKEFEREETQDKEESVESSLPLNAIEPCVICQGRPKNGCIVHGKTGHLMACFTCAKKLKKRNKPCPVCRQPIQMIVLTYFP
UniProt Q96SW2: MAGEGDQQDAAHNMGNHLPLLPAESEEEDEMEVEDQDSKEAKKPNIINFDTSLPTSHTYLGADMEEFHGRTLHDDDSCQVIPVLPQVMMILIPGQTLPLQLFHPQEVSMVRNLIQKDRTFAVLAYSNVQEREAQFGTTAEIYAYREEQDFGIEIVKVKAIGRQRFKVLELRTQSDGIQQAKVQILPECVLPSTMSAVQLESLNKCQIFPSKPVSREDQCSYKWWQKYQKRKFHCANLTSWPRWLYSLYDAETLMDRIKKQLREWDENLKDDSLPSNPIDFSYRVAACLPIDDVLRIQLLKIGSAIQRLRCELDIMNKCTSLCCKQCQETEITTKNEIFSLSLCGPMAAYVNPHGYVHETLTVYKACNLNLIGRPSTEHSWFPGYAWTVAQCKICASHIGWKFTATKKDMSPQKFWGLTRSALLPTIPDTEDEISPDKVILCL

What was measured:
Assay type in all cases: cell-based
[1] = target: T1, Protein cereblon/E3 ubiquitin-protein ligase Mdm2 (Homo sapiens) (UniProt Q00987+Q96SW2); test: PROTAC activity at CRBN/MDM2 in human RS4-11 cells harbouring wildtype p53 assessed as decrease in MDM2 protein level at 10 nM incubated for 2 hrs by Western blot analysis
[2] = target: T1, Protein cereblon/E3 ubiquitin-protein ligase Mdm2 (Homo sapiens); test: PROTAC activity at CRBN/MDM2 in human RS4-11 cells harbouring wildtype p53 assessed as decrease in MDM2 protein level at 30 nM incubated for 2 hrs by Western blot analysis
[3] = target: T1, Protein cereblon/E3 ubiquitin-protein ligase Mdm2 (Homo sapiens); test: PROTAC activity at CRBN/MDM2 in human RS4-11 cells harbouring wildtype p53 assessed as increase in p53 accumulation at 10 nM incubated for 2 hrs by Western blot analysis
[4] = target: T1, Protein cereblon/E3 ubiquitin-protein ligase Mdm2 (Homo sapiens); test: PROTAC activity at CRBN/MDM2 in human RS4-11 cells harbouring wildtype p53 assessed as increase in p53 accumulation at 30 nM incubated for 2 hrs by Western blot analysis
[5] = target: T1, Protein cereblon/E3 ubiquitin-protein ligase Mdm2 (Homo sapiens); test: PROTAC activity at CRBN/MDM2 in human RS4-11 cells harbouring wildtype p53 assessed as decrease in MDM2 protein level at 3 nM incubated for 2 hrs by Western blot analysis
[6] = target: T1, Protein cereblon/E3 ubiquitin-protein ligase Mdm2 (Homo sapiens); test: PROTAC activity at CRBN/MDM2 in human RS4-11 cells harbouring wildtype p53 assessed as increase in p53 accumulation at 3 nM incubated for 2 hrs by Western blot analysis
[7] = target: T1, Protein cereblon/E3 ubiquitin-protein ligase Mdm2 (Homo sapiens); test: PROTAC activity at CRBN/MDM2 in human RS4-11 cells harbouring wildtype p53 assessed as decrease in MDM2 protein level at 100 nM incubated for 2 hrs by Western blot analysis
[8] = target: T1, Protein cereblon/E3 ubiquitin-protein ligase Mdm2 (Homo sapiens); test: PROTAC activity at CRBN/MDM2 in human RS4-11 cells harbouring wildtype p53 assessed as increase in p53 accumulation at 100 nM incubated for 2 hrs by Western blot analysis
[9] = target: T1, Protein cereblon/E3 ubiquitin-protein ligase Mdm2 (Homo sapiens); test: PROTAC activity at CRBN/MDM2 in human RS4-11 cells harbouring wildtype p53 assessed as fold change in MDM2 level at 300 nM incubated for 2 hrs by Western blot analysis
[10] = target: T1, Protein cereblon/E3 ubiquitin-protein ligase Mdm2 (Homo sapiens); test: PROTAC activity at CRBN/MDM2 in human RS4-11 cells harbouring wildtype p53 assessed as fold change in MDM2 level at 1000 nM incubated for 2 hrs by Western blot analysis
[11] = target: T1, Protein cereblon/E3 ubiquitin-protein ligase Mdm2 (Homo sapiens); test: PROTAC activity at CRBN/MDM2 in human RS4-11 cells harbouring wildtype p53 assessed as fold change in MDM2 level at 3000 nM incubated for 2 hrs by Western blot analysis
[12] = target: T1, Protein cereblon/E3 ubiquitin-protein ligase Mdm2 (Homo sapiens); test: PROTAC activity at CRBN/MDM2 in human RS4-11 cells harbouring wildtype p53 assessed as fold change in p53 accumulation at 300 nM incubated for 2 hrs by Western blot analysis
[13] = target: T1, Protein cereblon/E3 ubiquitin-protein ligase Mdm2 (Homo sapiens); test: PROTAC activity at CRBN/MDM2 in human RS4-11 cells harbouring wildtype p53 assessed as fold change in p53 accumulation at 1000 nM incubated for 2 hrs by Western blot analysis
[14] = target: T1, Protein cereblon/E3 ubiquitin-protein ligase Mdm2 (Homo sapiens); test: PROTAC activity at CRBN/MDM2 in human RS4-11 cells harbouring wildtype p53 assessed as fold change in p53 accumulation at 3000 nM incubated for 2 hrs by Western blot analysis
[15] = target: T1, Protein cereblon/E3 ubiquitin-protein ligase Mdm2 (Homo sapiens); test: PROTAC activity at CRBN/MDM2 in human RS4-11 cells harbouring wildtype p53 assessed as decrease in MDM2 protein level at 300 nM incubated for 2 hrs by Western blot analysis
[16] = target: T1, Protein cereblon/E3 ubiquitin-protein ligase Mdm2 (Homo sapiens); test: PROTAC activity at CRBN/MDM2 in human RS4-11 cells harbouring wildtype p53 assessed as increase in p53 accumulation at 300 nM incubated for 2 hrs by Western blot analysis
[17] = target: T2, E3 ubiquitin-protein ligase Mdm2 (Homo sapiens, UniProt Q00987); test: Inhibition of MDM2 in human RS4-11 cells harbouring wildtype p53 assessed as increase in p53 accumulation by measuring fold change at 100 nM incubated for 2 hrs by Western blot analysis
[18] = target: T2, E3 ubiquitin-protein ligase Mdm2; test: Inhibition of MDM2 in human RS4-11 cells harbouring wildtype p53 assessed as increase in p53 accumulation by measuring fold change at 300 nM incubated for 2 hrs by Western blot analysis
[19] = target: T2, E3 ubiquitin-protein ligase Mdm2; test: Inhibition of MDM2 in human RS4-11 cells harbouring wildtype p53 assessed as decrease in MDM2 protein level by measuring fold change at 100 nM incubated for 2 hrs by Westernblot analysis
[20] = target: T2, E3 ubiquitin-protein ligase Mdm2; test: Inhibition of MDM2 in human RS4-11 cells harbouring wildtype p53 assessed as decrease in MDM2 protein level by measuring fold change at 300 nM incubated for 2 hrs by Westernblot analysis
[21] = target: T2, E3 ubiquitin-protein ligase Mdm2; test: Induction of MDM2 degradation in human RS4-11 cells harbouring wildtype p53 assessed as fold change in MDM2 protein level at 100 nM incubated for 2 hrs by Western blot analysis
[22] = target: T2, E3 ubiquitin-protein ligase Mdm2; test: Induction of MDM2 degradation in human RS4-11 cells harbouring wildtype p53 assessed as fold change in MDM2 protein level at 300 nM incubated for 2 hrs by Western blot analysis

O=C1CCC(N2C(=O)c3cccc(NCCOCCNC(=O)c4ccc(NC(=O)[C@@H]5NC6(CCCCC6)[C@@]6(C(=O)Nc7cc(Cl)ccc76)[C@H]5c5cccc(Cl)c5F)cc4)c3C2=O)C(=O)N1 (stereo partly drawn)
fold change (FC) [1]: 0.3
fold change (FC) [2]: 0.4
fold change (FC) [3]: 3.4
fold change (FC) [4]: 4.1

O=C1CCC(N2Cc3cc(CC#CCCCNC(=O)c4ccc(NC(=O)[C@@H]5NC6(CCCCC6)[C@@]6(C(=O)Nc7cc(Cl)ccc76)[C@H]5c5cccc(Cl)c5F)cc4)ccc3C2=O)C(=O)N1 (stereo partly drawn)
fold change (FC) [5]: 0.4
fold change (FC) [1]: 0.2
fold change (FC) [2]: 0.3
fold change (FC) [6]: 1.7
fold change (FC) [3]: 2.2
fold change (FC) [4]: 2.4

O=C1CCC(N2C(=O)c3cccc(NCCNC(=O)c4ccc(NC(=O)[C@@H]5NC6(CCCCC6)[C@@]6(C(=O)Nc7cc(Cl)ccc76)[C@H]5c5cccc(Cl)c5F)cc4)c3C2=O)C(=O)N1 (stereo partly drawn)
fold change (FC) [2]: 0.5
fold change (FC) [4]: 1.6
fold change (FC) [7]: 0.4
fold change (FC) [8]: 2.4

CN1C(=O)CCC(N2Cc3c(C#CCCCNC(=O)c4ccc(NC(=O)[C@@H]5NC6(CCCCC6)[C@@]6(C(=O)Nc7cc(Cl)ccc76)[C@H]5c5cccc(Cl)c5F)cc4)cccc3C2=O)C1=O (stereo partly drawn)
fold change (FC) [9]: 2.4
fold change (FC) [10]: 2.3
fold change (FC) [11]: 2.4
fold change (FC) [12]: 3.3
fold change (FC) [13]: 3.5
fold change (FC) [14]: 4.4

O=C1CCC(N2C(=O)c3cccc(NCCCCCNC(=O)c4ccc(NC(=O)[C@@H]5NC6(CCCCC6)[C@@]6(C(=O)Nc7cc(Cl)ccc76)[C@H]5c5cccc(Cl)c5F)cc4)c3C2=O)C(=O)N1 (stereo partly drawn)
fold change (FC) [1]: 0.4
fold change (FC) [2]: 0.2
fold change (FC) [3]: 2.2
fold change (FC) [4]: 3.9

O=C1CCC(N2Cc3c(C#CCCCNC(=O)c4ccc(NC(=O)[C@H]5NC6(CCCCC6)[C@]6(C(=O)Nc7cc(Cl)ccc76)[C@@H]5c5cccc(Cl)c5F)cc4)cccc3C2=O)C(=O)N1 (stereo partly drawn)
fold change (FC) [9]: 1.4
fold change (FC) [10]: 1.6
fold change (FC) [11]: 1.4
fold change (FC) [12]: 1.3
fold change (FC) [13]: 1
fold change (FC) [14]: 1.3

O=C1CCC(N2C(=O)c3cccc(NCCCCCCCNC(=O)c4ccc(NC(=O)[C@@H]5NC6(CCCCC6)[C@@]6(C(=O)Nc7cc(Cl)ccc76)[C@H]5c5cccc(Cl)c5F)cc4)c3C2=O)C(=O)N1 (stereo partly drawn)
fold change (FC) [7]: 1
fold change (FC) [15]: 0.7
fold change (FC) [8]: 1.3
fold change (FC) [16]: 1.7

O=C1CCC(N2C(=O)c3cccc(NCCOCCOCCNC(=O)c4ccc(NC(=O)[C@@H]5NC6(CCCCC6)[C@@]6(C(=O)Nc7cc(Cl)ccc76)[C@H]5c5cccc(Cl)c5F)cc4)c3C2=O)C(=O)N1 (stereo partly drawn)
fold change (FC) [5]: 0.2
fold change (FC) [1]: 0.1
fold change (FC) [2]: 0.07
fold change (FC) [6]: 3
fold change (FC) [3]: 4.2
fold change (FC) [4]: 5.3

O=C1CCC(N2C(=O)c3cccc(NCCCCNC(=O)c4ccc(NC(=O)[C@@H]5NC6(CCCCC6)[C@@]6(C(=O)Nc7cc(Cl)ccc76)[C@H]5c5cccc(Cl)c5F)cc4)c3C2=O)C(=O)N1 (stereo partly drawn)
fold change (FC) [5]: 0.5
fold change (FC) [1]: 0.3
fold change (FC) [2]: 0.1
fold change (FC) [6]: 1.8
fold change (FC) [3]: 2.3
fold change (FC) [4]: 3.8

O=C1CCC(N2C(=O)c3cccc(NCCOCCOCCOCCNC(=O)c4ccc(NC(=O)[C@@H]5NC6(CCCCC6)[C@@]6(C(=O)Nc7cc(Cl)ccc76)[C@H]5c5cccc(Cl)c5F)cc4)c3C2=O)C(=O)N1 (stereo partly drawn)
fold change (FC) [1]: 0.3
fold change (FC) [2]: 0.4
fold change (FC) [3]: 4.4
fold change (FC) [4]: 5.6

O=C1CCC(N2C(=O)c3cccc(NC(=O)c4ccc(NC(=O)[C@@H]5NC6(CCCCC6)[C@@]6(C(=O)Nc7cc(Cl)ccc76)[C@H]5c5cccc(Cl)c5F)cc4)c3C2=O)C(=O)N1 (stereo partly drawn)
fold change (FC) [17]: 2.3
fold change (FC) [18]: 2.5
fold change (FC) [19]: 1.1
fold change (FC) [20]: 0.9

CNC(=O)c1ccc(NC(=O)[C@@H]2NC3(CCCCC3)[C@@]3(C(=O)Nc4cc(Cl)ccc43)[C@H]2c2cccc(Cl)c2F)cc1
fold change (FC) [21]: 1.4
fold change (FC) [17]: 3.2
fold change (FC) [18]: 3.8
fold change (FC) [22]: 1.7

O=C1CCC(N2Cc3ccc(CC#CCCCNC(=O)c4ccc(NC(=O)[C@@H]5NC6(CCCCC6)[C@@]6(C(=O)Nc7cc(Cl)ccc76)[C@H]5c5cccc(Cl)c5F)cc4)cc3C2=O)C(=O)N1 (stereo partly drawn)
fold change (FC) [5]: 0.4
fold change (FC) [1]: 0.2
fold change (FC) [2]: 0.2
fold change (FC) [6]: 1.6
fold change (FC) [3]: 2.4
fold change (FC) [4]: 4.1

O=C1CCC(N2C(=O)c3cccc(NCCCCCCNC(=O)c4ccc(NC(=O)[C@@H]5NC6(CCCCC6)[C@@]6(C(=O)Nc7cc(Cl)ccc76)[C@H]5c5cccc(Cl)c5F)cc4)c3C2=O)C(=O)N1 (stereo partly drawn)
fold change (FC) [2]: 0.9
fold change (FC) [4]: 1.4
fold change (FC) [7]: 0.6
fold change (FC) [8]: 1.8
